{
  "source": "patent US20240189287A1",
  "about": "“PERIPHERALLY RESTRICTED CB1 RECEPTOR BLOCKERS AND USES THEREOF” (BIONANOSIM (BNS) LTD, priority 2021, published 2024)",
  "test_system": "Salmonella typhimurium (TA98, TA100)",
  "experiment": "Mini-AMES assay",
  "settings": "TA100, S9 no",
  "data": [
    {"substance": "MNNG", "values": [
      {"measurement": "AMES result (positive/negative)", "result": "positive"}
    ]}
  ]
}
